Values of other authors in patent publication US11452768B2, “Combination therapy with neoantigen vaccine” (The Broad Institute Inc., priority 2013, dated 2022).

Test system: metastatic ccRCC
Conditions: human, in vivo

Substance: HD-IL2: high dose interleukin-2
- Durable complete remission rate: 7%
